Data reported in PubChem BioAssay AID651768 (National Center for Advancing Translational Sciences (NCATS), 2012).
Only a part is listed here, and it is no random draw. Active and inactive are the calls of the source. Calls follow the shape of the dose curve; as a rule, active = well fitted inhibition curve with a large enough effect; inconclusive = small, poorly fitted or top-dose-only effect; inactive = no such curve, though single readings can be large or run the other way.

Amino acid sequences for entries named in this document (tags omitted).
UniProt Q14191, whole entry, looked up: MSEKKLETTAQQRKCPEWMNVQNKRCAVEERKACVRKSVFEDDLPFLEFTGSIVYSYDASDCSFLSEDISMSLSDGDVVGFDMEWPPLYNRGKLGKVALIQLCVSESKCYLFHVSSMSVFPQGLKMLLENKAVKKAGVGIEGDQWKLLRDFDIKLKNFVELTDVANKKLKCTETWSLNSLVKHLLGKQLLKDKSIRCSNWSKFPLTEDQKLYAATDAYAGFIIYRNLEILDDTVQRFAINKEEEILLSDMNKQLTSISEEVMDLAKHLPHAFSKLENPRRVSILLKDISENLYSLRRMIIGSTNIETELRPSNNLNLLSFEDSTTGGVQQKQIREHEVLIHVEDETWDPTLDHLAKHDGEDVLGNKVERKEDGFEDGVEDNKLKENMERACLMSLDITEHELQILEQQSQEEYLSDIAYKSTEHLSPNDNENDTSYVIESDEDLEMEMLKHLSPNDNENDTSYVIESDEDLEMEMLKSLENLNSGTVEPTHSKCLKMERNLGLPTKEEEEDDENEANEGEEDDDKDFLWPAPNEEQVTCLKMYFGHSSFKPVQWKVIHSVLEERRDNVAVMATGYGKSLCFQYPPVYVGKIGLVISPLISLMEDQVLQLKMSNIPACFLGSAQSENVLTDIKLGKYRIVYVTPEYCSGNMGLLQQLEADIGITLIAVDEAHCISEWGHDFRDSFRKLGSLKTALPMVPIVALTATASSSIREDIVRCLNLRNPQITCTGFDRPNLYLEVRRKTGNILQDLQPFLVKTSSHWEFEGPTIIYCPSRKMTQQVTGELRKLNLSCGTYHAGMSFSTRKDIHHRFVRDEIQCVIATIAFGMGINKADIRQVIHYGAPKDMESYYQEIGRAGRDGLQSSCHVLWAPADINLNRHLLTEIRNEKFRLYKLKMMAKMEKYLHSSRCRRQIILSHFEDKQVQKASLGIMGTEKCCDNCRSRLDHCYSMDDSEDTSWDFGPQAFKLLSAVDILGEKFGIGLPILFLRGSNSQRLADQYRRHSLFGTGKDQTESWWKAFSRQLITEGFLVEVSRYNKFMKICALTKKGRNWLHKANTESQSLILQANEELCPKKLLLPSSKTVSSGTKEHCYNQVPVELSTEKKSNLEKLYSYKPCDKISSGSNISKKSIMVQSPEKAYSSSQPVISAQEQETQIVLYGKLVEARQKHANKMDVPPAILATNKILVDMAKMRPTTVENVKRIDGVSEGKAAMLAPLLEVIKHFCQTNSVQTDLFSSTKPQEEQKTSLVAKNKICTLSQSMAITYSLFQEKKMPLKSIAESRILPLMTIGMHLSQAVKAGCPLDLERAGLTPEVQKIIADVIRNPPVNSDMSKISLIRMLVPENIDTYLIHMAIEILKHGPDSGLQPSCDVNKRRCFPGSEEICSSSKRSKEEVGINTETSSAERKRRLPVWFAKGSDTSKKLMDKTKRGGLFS

Molecular target: Bifunctional 3'-5' exonuclease/ATP-dependent helicase WRN (Homo sapiens) (UniProt Q14191)
Assay: qHTS for Inhibitors of WRN Helicase; also: nearly all actives have a fitted effect of over 55% in size
Conditions: WRN helicase unwinding, fluorescent forked duplex, kinetic; series mostly up to 114 µM; activity change, negative = inhibition: at the top concentration
Source text: Inhibition of DNA repair is proposed as a strategy for combating cancer. Synthetic lethality is an approach that exploits preexisting DNA repair deficiencies in certain tumors to develop inhibitors of DNA repair pathways that compensate for the tumor-associated DNA repair deficiency. Because helicases play critical roles in the DNA damage response and in DNA repair, particularly in actively dividing and replicating cells, characterization of synthetic lethal relationships of DNA helicases may be of value in developing improved anticancer treatment strategies; moreover, small molecules that specifically target a given DNA helicase may be useful for understanding its role in cellular nucleic acid metabolism. The goal of this project is to identify small molecule, non-covalent chemical inhibitors of the Werner syndrome (WS) helicase (WRN), which plays an important role in cell proliferation, the replication stress response, and DNA repair. […] The WRN gene product that is defective in the chromosomal instability disorder has DNA helicase and exonuclease activities and interacts with a number of nuclear proteins to maintain genomic stability. We will employ an optimized high-throughput screening assay that utilizes a fluorescence intensity modulation scheme with a fluorophore and quencher positioned near one another within a duplex deoxyoligonucleotide that contains a single forked structure. After a high-throughput screen of the ~350,000-member Molecular Libraries Small Molecule Repository (MLSMR) collection, followed by data analysis and hit selection, a panel of confirmatory, as well as secondary and ternary, assays will be employed to identify high-confidence WRN inhibitors. Structure-activity relationships will be investigated for the top candidate inhibitor series through medchem expansion. These are the results of the primary screening campaign against the MLSMR. NIH Chemical Genomics Center [NCGC] NIH Molecular Libraries Probe Centers Network [MLPCN] MLPCN Grant: MH096530 Assay Submitter (PI): Robert Brosh, National Institute of Aging
Three muL of reagents (buffer in columns 3 and 4 as negative controls; WRN at 20 nM final concentration in columns 1 and 2 as positive controls; columns 5-48 as test reactions) will be dispensed into a 1536-well Greiner black plate via solenoid-valve based nanoliter dispensers. Compounds (23 nL each in columns 5-48) and control (23 nL each in column 2 as dose-response) will be transferred via a Kalypsys pintool equipped with a 1536-pin array. Plates will be incubated for 15 min at room temperature, and then 1 µL of substrate (100 nM forked duplex oligonucleotide and 2 mM ATP final concentrations) will be added to start reaction, and plate will be transferred into a ViewLux high-throughput CCD imager where reaction progress is measured in kinetic mode using standard red-fluorescence optics (excitation filter 525 nm, emission filter 598 nm).
% is scaled to controls: 0 for no effect and ±100 for the full control effect; potency is read from the fitted curve at half-maximal effect.

Structure (SMILES) | activity change, negative = inhibition | Potency
CN(CCCl)Cc1cc(Cl)c(NC2=NCCN2)c(Cl)c1 | inactive: -0.887% | –
CCOP(=O)(Nc1ccc(C)cn1)OCC | inactive: -0.74% | –
O=P1(Nc2ccccn2)COc2ccccc2OC1 | inactive: -1.54% | –
CCC1=CC2Cc3nc4ccc(Cl)cc4c(N)c3C(C1)C2 (stereo unspecified) | inactive: 3.04% | –
CCOP(=O)(NC(=NC(C)c1ccccc1)NC(C)c1ccccc1)OCC (stereo unspecified) | inactive: 3.49% | –
O=P1(N(CCCl)CCCl)NCCC(C(F)(F)F)O1 (stereo unspecified) | inactive: -3.17% | –
Clc1n[nH]nc1-c1nn[nH][15n]1 | inactive: -0.839% | –
CC(C)(C)C(=O)NC(Sc1ncccn1)C(Cl)(Cl)Cl (stereo unspecified) | inactive: -3.5% | –
COc1ccccc1CNC(=O)COC(=O)C(O)(c1ccccc1)c1ccccc1 | inactive: 2.8% | –
CC1(CBr)Cn2c(nc3ccccc3c2=O)S1 (stereo unspecified) | inactive: 0.192% | –
CC(C)/C=N\N=C(\N)N[N+](=O)[O-] | inactive: 2.69% | –
CN(C(=O)Cc1ccc(Cl)c(Cl)c1)[C@@H]1CCCC[C@H]1N1CCCC1 | inactive: 6.18% | –
Cc1nn(-c2ccccc2)c2c1P(=O)(N1CCOCC1)N(C)C(c1ccccc1)=N2 (stereo unspecified) | inactive: -5.72% | –
CC1CCC(C(C)C)C(OP(=O)(Nc2ccccn2)c2ccccc2)C1 (stereo unspecified) | inactive: -10.6% | –
Cc1ccc(C(=O)OC2CN3CCC2CC3)cc1 (stereo unspecified) | inactive: 2.72% | –
CCCC1OP(=O)(Nc2ccccc2)OCC1CC (stereo unspecified) | inactive: 3.86% | –
CN(C)C1(CNC(=O)c2ccc(S(C)(=O)=O)cc2)CCCCC1 | inactive: 2.75% | –
O=P1(Nc2ncccn2)COc2ccccc2OC1 | inactive: 15.8% | –
Cc1ccc(S(=O)(=O)N(CCCN)CCCc2c(C)nc(N)[nH]c2=O)cc1 | inactive: 11.7% [at 57.1 µM] | –
O=P1(Nc2ccc(Br)cn2)COc2ccccc2OC1 | inactive: 3.02% | –
NS(=O)(=O)c1cccc(NC(=O)COC(=O)C(O)(c2ccccc2)c2ccccc2)c1 | inactive: -2.05% | –
O=[As](O)(c1cccs1)c1cccs1 | inactive: 11% | –
Cc1ccc(OCC(=O)OC2CN3CCC2CC3)cc1 (stereo unspecified) | inactive: 0.489% | –
Nc1cccc([As](=O)(O)c2ccccc2)c1 | inactive: -6.94% | –
CCOP1(=S)c2c(C)nn(CCC#N)c2N=C(c2ccccc2F)N1C (stereo unspecified) | inactive: -6.59% | –
O=P(Nc1nccs1)(c1ccccc1)c1nc2ccccc2s1 (stereo unspecified) | – | active: 22.4 µM

Structure (SMILES) | activity change, negative = inhibition | Potency
O=P(Nc1nccs1)(Oc1ccccc1)Oc1ccccc1 | inactive: -0.593% | –
Nc1ccccc1[As](=O)(O)c1ccccc1 | inactive: -1.16% | –
O=C(O)COc1ccc([As](=O)(O)O)cc1[N+](=O)[O-] | inactive: 9.4% | –
NC(=O)Nc1ccc([As](=O)(O)O)cc1 | inactive: -1.21% | –
CN(C)C(=O)c1cc([N+](=O)[O-])cc2c1-c1c(cc([N+](=O)[O-])cc1[N+](=O)[O-])C2=O | inactive: -8.7% | –
O=[N+]([O-])c1ccc2c(c1)nnn2O | inactive: -5.63% | –
CN(C(=O)Cc1ccc(Cl)c(Cl)c1)[C@H]1CC[C@@]2(CCCO2)C[C@@H]1N1CCCC1 | inactive: -0.687% | –
N#CCCN(C(=O)COC(=O)C(O)(c1ccccc1)c1ccccc1)c1ccc(F)cc1 | inactive: -4.25% | –
CN(C(=O)Cc1ccccc1)[C@@H]1CC[C@]2(CCCO2)C[C@H]1N1CCCC1 | inactive: -1.82% | –
CCOP1(=S)c2c(C)nn(CCC#N)c2N=C(c2ccc(F)cc2)N1C (stereo unspecified) | inactive: -10.7% | –
COc1cc(C(=O)NCC2(N3CCOCC3)CCCCC2)cc(Cl)c1OC(C)C | inactive: 2.91% [at 57.1 µM] | –
O=[As](O)(O)c1cccnc1 | inactive: -2.88% | –
CS(=O)(=O)c1ccc(Cl)c(NC(=O)COC(=O)C(O)(c2ccccc2)c2ccccc2)c1 | inactive: -27.6% | –
O=C(OC1CN2CCC1CC2)c1ccc(Cl)cc1 (stereo unspecified) | inactive: 3.1% | –
O=[As](O)(c1cccc(O)c1)c1cccc(O)c1 | inactive: -5.06% | –
Cc1cccc(OCC(=O)OC2CN3CCC2CC3)c1 (stereo unspecified) | inactive: -1.94% [at 57.1 µM] | –
CCCOP(=S)(Nc1nc(N)cc(=O)[nH]1)OCCC | inactive: 0.366% | –
Nc1cccc2c([As](=O)(O)O)cccc12 | inactive: -7.97% [at 11.6 µM] | –
Cc1ccc(NCCc2c([N+](=O)[O-])cc([N+](=O)[O-])cc2[N+](=O)[O-])cc1 | inactive: -25.9% | –
COc1cc(C2NCCC3(OCCO3)C2(C)C)cc(OC)c1OC (stereo unspecified) | inactive: -13.4% | –
CCOP(=O)(Nc1cccc2ccccc12)OCC | inactive: -2.25% | –
O=C(OC1CN2CCC1CC2)C12CC3CC(CC(C3)C1)C2 (stereo unspecified) | inactive: -1.54% | –
Cc1cc(=O)[nH]c(N[N+](=O)[O-])n1 | inactive: -6.46% | –
Cc1c2c(nc3ccccc13)SC(C(Cl)Cl)C2 (stereo unspecified) | inactive: -4.79% | –
COc1ccc2nc(NP(=O)(c3ccccc3)c3ccccc3)sc2c1 | inactive: -4.63% | –
COc1cc(I)ccc1[As](=O)(O)O | inactive: -2.12% | –

Structure (SMILES) | activity change, negative = inhibition | Potency
O=P1(N(CCCl)CCCl)OCCCN1CCCl (stereo unspecified) | inactive: -2.96% | –
O=P1(N(CCCl)CCCl)Nc2ccccc2N1 | inactive: 1.05% | –
COc1ccc(N/C(=N/P(=O)(N2CCOCC2)N2CCOCC2)N2CCOCC2)cc1 | inactive: 7.19% | –
O=[N+]([O-])c1cc(Oc2ccc([N+](=O)[O-])cc2C(F)(F)F)cc([N+](=O)[O-])c1 | inactive: -3.07% | –
C[As](=O)(O)c1cccc(C(=O)O)c1 | inactive: 6.77% | –
O=[As](O)(c1ccc(O)cc1)c1ccccc1O | inactive: -2.71% | –
COc1cc(C(=O)NCC2(N3CCOCC3)CCCCC2)ccc1OCC(C)C | inactive: -1.03% | –
Cc1ccc2nc3c(c(C)c2c1)CC(C(Cl)Cl)S3 (stereo unspecified) | inactive: -19.4% [at 57.1 µM] | –
[N-]=[N+]=NC1CCCCC1NC(=O)c1cc([N+](=O)[O-])cc([N+](=O)[O-])c1 (stereo unspecified) | inactive: 5.85% | –
Cc1ccc(OP(=O)(Nc2ccc([N+](=O)[O-])cn2)Oc2ccc(C)cc2)cc1 | inactive: 7.25% | –
CC(C)c1ccc(OP(=O)(Nc2ccccn2)Oc2ccccc2F)cc1 (stereo unspecified) | inactive: -8.44% | –
COC(=O)C1(C)COP(=O)(N2CCCCCC2)OC1 (stereo unspecified) | inactive: 0.214% | –
ClCCSc1nnc(-c2cccnc2)o1 | inactive: 6.41% | –
O=C(OC1CN2CCC1CC2)c1cccc2[nH]cnc12 (stereo unspecified) | inactive: 2.86% | –
CCN(CC)C(=S)SC(NC=O)C(Cl)(Cl)Cl (stereo unspecified) | inactive: 0.155% | –
CC(C)NC(=O)NP(=O)(Oc1ccccc1)Oc1ccccc1 | inactive: -0.755% | –
O=[N+]([O-])c1cc([N+](=O)[O-])c(-c2ccn[nH]2)s1 | inactive: -9% | –
CC1CCNP(=O)(N(CCCl)CCCl)O1 (stereo unspecified) | inactive: -16.1% | –
CCOC(=O)Nc1ccc([As](=O)(O)O)c(O)c1 | inactive: 6.59% | –
O=C(O)C(O)c1ccc(N(CCCl)CCCl)cc1 (stereo unspecified) | inactive: -9.92% | –
CCCCOc1ccc(C(=O)NCC2(N3CCCCC3)CCCCC2)cc1OC | inactive: 4.63% | –
Cc1cc(SC(NC(=O)c2ccccc2)C(Cl)(Cl)Cl)nc(C(C)C)n1 (stereo unspecified) | inactive: -29.2% | –
COP(=O)(OC)N1CC1c1ccccc1 (stereo unspecified) | inactive: -0.981% | –
CCOC(=O)Nc1cccc([As](=O)(O)O)c1 | inactive: 6.04% | –
